The source of these data is PubChem BioAssay AID652197 (Broad Institute, 2013).

Sequences of proteins named here, by UniProt entry; tags and fusion partners are left off.
UniProt Q9NZ08, whole entry: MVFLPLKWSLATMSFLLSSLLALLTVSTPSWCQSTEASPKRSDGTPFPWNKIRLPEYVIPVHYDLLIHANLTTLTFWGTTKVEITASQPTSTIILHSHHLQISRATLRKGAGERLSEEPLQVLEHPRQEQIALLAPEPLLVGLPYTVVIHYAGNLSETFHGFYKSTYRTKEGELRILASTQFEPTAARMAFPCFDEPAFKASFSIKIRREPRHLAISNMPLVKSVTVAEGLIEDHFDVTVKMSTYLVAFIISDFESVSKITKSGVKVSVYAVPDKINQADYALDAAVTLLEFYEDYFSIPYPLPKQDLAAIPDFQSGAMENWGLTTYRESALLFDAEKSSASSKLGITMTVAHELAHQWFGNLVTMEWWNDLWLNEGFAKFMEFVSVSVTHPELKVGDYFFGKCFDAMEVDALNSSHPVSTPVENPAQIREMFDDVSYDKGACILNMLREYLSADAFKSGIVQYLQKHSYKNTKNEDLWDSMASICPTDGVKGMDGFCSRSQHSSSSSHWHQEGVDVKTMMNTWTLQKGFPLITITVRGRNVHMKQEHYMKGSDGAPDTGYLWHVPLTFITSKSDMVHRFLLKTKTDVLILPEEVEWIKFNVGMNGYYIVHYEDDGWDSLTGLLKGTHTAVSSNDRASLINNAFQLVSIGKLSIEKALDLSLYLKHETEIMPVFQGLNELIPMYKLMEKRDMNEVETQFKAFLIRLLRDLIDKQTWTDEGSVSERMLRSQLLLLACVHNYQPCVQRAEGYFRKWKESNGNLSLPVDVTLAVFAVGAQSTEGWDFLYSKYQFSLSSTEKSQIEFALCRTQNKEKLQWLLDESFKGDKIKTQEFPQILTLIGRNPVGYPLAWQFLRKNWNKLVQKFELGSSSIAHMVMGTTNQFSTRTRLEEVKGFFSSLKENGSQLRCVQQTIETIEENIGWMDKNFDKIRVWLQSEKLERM

This is a selection; strong and weak results do not stand in their true shares. Active and inactive are the calls of the source.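 The calls were made as follows: active = mean replicate inhibition of at least 30%, or all replicates individually reaching that 30% level; inactive = mean below 30% and not every replicate reaching it.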

The target in the assay is Endoplasmic reticulum aminopeptidase 1 (Homo sapiens) (UniProt Q9NZ08). The assay is described as follows: inhibition of ERAP1 peptide trimming enzyme – biochemical, single point, plate reader, primary screen (AID 652197).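 Also: 0% = neutral control wells and 100% = L-leucinethiol positive control wells.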 The conditions noted are these: recombinant ERAP1, Leu-AMC fluorescence, 60 min; at 10.7 µM; hits give high values.
The inhibition is the change of the read-out against control, counted positive when it falls. On to `CCC(=O)N(c1ccccc1)C1(COC)CCN(CCn2nnn(CC)c2=O)CC1`, for which the inhibition was inactive: -1.97%.

With `CCC(=O)N(c1ccccc1)C1(COC)CCN(CCc2cccs2)CC1`, the inhibition was inactive: -7.64%.
